# Target: Alpha-protein kinase 1 (Homo sapiens, UniProt Q96QP1)
# Amino acid sequences for entries named in this document (tags omitted). A change or cut given only in a name is not applied to a line headed by its entry.
# UniProt Q96QP1: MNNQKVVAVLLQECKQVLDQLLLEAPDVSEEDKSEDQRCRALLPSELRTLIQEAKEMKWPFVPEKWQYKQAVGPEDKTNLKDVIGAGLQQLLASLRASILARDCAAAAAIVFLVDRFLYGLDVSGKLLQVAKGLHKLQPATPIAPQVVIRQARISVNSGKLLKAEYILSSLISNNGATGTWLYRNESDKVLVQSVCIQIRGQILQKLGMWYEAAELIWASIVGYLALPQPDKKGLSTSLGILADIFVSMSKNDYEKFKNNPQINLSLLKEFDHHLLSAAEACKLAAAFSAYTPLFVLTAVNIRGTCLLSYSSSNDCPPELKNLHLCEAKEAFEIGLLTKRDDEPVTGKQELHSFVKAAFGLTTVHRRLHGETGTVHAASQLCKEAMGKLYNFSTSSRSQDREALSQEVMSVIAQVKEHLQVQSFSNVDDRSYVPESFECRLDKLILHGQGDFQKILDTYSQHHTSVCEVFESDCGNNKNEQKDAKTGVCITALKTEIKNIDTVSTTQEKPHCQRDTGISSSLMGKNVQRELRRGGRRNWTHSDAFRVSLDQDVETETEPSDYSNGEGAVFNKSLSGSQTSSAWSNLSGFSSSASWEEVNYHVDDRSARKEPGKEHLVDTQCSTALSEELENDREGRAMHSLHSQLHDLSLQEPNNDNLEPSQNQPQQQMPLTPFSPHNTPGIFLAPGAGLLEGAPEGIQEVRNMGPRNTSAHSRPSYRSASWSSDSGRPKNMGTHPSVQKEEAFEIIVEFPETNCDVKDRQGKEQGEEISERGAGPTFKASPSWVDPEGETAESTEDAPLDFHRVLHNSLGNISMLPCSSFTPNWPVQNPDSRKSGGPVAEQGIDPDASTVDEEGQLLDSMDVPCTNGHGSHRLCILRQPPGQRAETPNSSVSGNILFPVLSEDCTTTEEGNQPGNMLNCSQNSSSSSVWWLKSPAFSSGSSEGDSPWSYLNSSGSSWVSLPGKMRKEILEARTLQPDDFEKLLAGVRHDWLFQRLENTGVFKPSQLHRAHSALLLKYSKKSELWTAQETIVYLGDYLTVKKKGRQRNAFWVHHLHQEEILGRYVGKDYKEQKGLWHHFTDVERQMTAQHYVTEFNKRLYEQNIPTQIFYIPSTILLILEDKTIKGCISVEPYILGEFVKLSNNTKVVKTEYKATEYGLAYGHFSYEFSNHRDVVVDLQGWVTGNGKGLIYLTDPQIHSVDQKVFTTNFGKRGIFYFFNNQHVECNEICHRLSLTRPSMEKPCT
# Test: ALPK1 In Vitro Kinase Assay
# Procedure: ALPK1 kinase activity was measured in an in vitro assay using ADP-Heptose as the ALPK1 ligand and activator of its kinase activity and TIFA protein as the ALPK1 phosphorylation substrate. Since phosphorylated TIFA proteins oligomerize, Homogeneous Time-Resolved Fluorescence (HTRF) was used to measure protein: protein interaction between HA-tagged TIFA proteins as an indicator of TIFA phosphorylation. In brief, dose-response studies were performed with […] in 384-well assay plates. Each well contained 0.1 mg TIFA, ALPK1 (2 nM final concentration in reaction mixture) and kinase buffer (100 mM of HEPES pH 7.4, 4 mM DTT, 40 mM MgCl2, 20 mM of β-Glycerol phosphate disodium salt, 0.4 mM of Na3VO4, 0.16 mg/mL). Titrations of the test compounds were prepared in dimethylsulphoxide (DMSO). The reaction was initiated by addition of ATP and ADP-Heptose.
smiles,measurement,value
"C#CC(C)(c1ccc(Br)cc1)c1csc(NC(C)=O)n1 (stereo unspecified) [US20240109853, Compound D004]",IC50,18 nM
